The values that follow are results of earlier work, collected in publication PMC12640937, “Integrating drug effects on individual cardiac ionic currents and cardiac action potentials to understand nonclinical translation to clinical ECG changes” (Frontiers in Pharmacology, 2025).

This series deals with hERG1a and hERG1a/1b channels. Conditions: ref Tran et al., 2020; cited from earlier work.

Turning to `CO[C@]12CC[C@@]3(C[C@@H]1[C@](C)(O)C(C)(C)C)[C@H]1Cc4ccc(O)c5c4[C@@]3(CCN1)[C@H]2O5`, the “pharmacological difference between hERG1a and hERG1a/1b channels” value is “no pharmacological differences”.
